Data: IntAct's records for PubMed 17289840

B1: Glutamate receptor 2 (Rattus norvegicus (Rat)), P19491 (parent)
chain: MQKIMHISVLLSPVLWGLIFGVSSNSIQIGGLFPRGADQEYSAFRVGMVQFSTSEFRLTPHIDNLEVANSFAVTNAFCSQFSRGVYAIFGFYDKKSVNTITSFCGTLHVSFITPSFPTDGTHPFVIQMRPDLKGALLSLIEYYQWDKFAYLYDSDRGLSTLQAVLDSAAEKKWQVTAINVGNINNDKKDETYRSLFQDLELKKERRVILDCERDKVNDIVDQVITIGKHVKGYHYIIANLGFTDGDLLKIQFGGANVSGFQIVDYDDSLVSKFIERWSTLEEKEYPGAHTATIKYTSALTYDAVQVMTEAFRNLRKQRIEISRRGNAGDCLANPAVPWGQGVEIERALKQVQVEGLSGNIKFDQNGKRINYTINIMELKTNGPRKIGYWSEVDKMVVTLTELPSGNDTSGLENKTVVVTTILESPYVMMKKNHEMLEGNERYEGYCVDLAAEIAKHCGFKYKLTIVGDGKYGARDADTKIWNGMVGELVYGKADIAIAPLTITLVREEVIDFSKPFMSLGISIMIKKPQKSKPGVFSFLDPLAYEIWMCIVFAYIGVSVVLFLVSRFSPYEWHTEEFEDGRETQSSESTNEFGIFNSLWFSLGAFMQQGCDISPRSLSGRIVGGVWWFFTLIIISSYTANLAAFLTVERMVSPIESAEDLSKQTEIAYGTLDSGSTKEFFRRSKIAVFDKMWTYMRSAEPSVFVRTTAEGVARVRKSKGKYAYLLESTMNEYIEQRKPCDTMKVGGNLDSKGYGIATPKGSSLGNAVNLAVLKLNEQGLLDKLKNKWWYDKGECGSGGGDSKEKTSALSLSNVAGVFYILVGGLGLAMLVALIEFCYKSRAEAKRMKVAKNPQNINPSSSQNSQNFATYKEGYNVYGIESVKI

Variants of: B1
Details: with ap2m1_rat Ap2m1, P84092

| effect of a mutation on the interaction | Variant |
| --- | --- |
| decreasing interaction strength | K844A |

Variants of: B1
Details: with ap2m1_rat Ap2m1, P84092
Remark: another data set of the same source

| effect of a mutation on the interaction | Variant |
| --- | --- |
| decreasing interaction strength | R845A |
| decreasing interaction strength | K847A |
